Chains of the proteins cited; added tags and fusions are not shown.
UniProt P40763, whole entry: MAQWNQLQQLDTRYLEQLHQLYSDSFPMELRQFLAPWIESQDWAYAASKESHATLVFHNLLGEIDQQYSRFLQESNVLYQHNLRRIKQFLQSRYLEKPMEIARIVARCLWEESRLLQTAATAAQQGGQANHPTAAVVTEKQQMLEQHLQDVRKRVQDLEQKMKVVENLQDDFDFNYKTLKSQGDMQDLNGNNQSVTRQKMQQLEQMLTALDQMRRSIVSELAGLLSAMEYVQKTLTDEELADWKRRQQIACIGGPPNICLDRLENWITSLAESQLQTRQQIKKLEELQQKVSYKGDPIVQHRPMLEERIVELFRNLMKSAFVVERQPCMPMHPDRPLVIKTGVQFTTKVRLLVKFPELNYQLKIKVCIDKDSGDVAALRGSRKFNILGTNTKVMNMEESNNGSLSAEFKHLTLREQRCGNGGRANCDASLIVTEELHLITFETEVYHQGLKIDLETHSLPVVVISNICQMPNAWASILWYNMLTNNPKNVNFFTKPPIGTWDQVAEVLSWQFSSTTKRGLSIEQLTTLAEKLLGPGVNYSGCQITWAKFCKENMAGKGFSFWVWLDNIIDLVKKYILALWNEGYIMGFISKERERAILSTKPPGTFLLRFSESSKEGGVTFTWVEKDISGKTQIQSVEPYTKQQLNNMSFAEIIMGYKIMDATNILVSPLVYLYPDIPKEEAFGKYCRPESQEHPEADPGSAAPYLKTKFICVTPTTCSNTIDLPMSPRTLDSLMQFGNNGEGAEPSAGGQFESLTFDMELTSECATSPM

This is a selection; strong and weak results do not stand in their true shares. Some salts and complexes are drawn in separate pieces, as the source files them; their charges need not balance. Calls of active or inactive are those of the source.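 Rule for the calls: active = compounds whose four printed spots each show fluorescence over background unusually high for their array block, chance value under 7%; inactive = the rest.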
What follows are molecules tested against Signal transducer and activator of transcription 3 (Homo sapiens) (UniProt P40763) (assay: STAT3 binders, primary screen, biochemical, small molecule microarray, single point, set 2 (AID 624138)). Settings: His-STAT3 binding, anti-His fluorescence.
`C/C1=C2N=C(/C=C3N=C(/C(C)=C4\[N-][C@@](C)([C@@H]5N=C1[C@](C)(CCC(=O)NC[C@@H](C)OP(=O)(O)O[C@H]1[C@@H](O)[C@@H](n6cnc7cc(C)c(C)cc76)O[C@@H]1CO)[C@H]5CC(N)=O)[C@@](C)(CC(N)=O)[C@@H]4CCC(N)=O)[C@@](C)(CC(N)=O)[C@@H]\3CCC(N)=O)C(C)(C)[C@@H]/2CCC(N)=O.[C-]#N.[Co+3]` was tested, and the outcome was “inactive”. `CN(C(=O)Cc1ccc(Cl)c(Cl)c1)C1CCCCC1N1CCCC1` (stereo unspecified) was tested, and the outcome was “inactive”. With `C=CC1C=C(C)C/C(=N\P(=O)(Oc2ccccc2)Oc2ccccc2)N1Cc1ccc(OC)cc1` (stereo unspecified) the outcome was “inactive”. With `C/C1=C2N=C(/C=C3N=C(/C(C)=C4\[N-][C@@](C)([C@@H]5N=C1[C@](C)(CCC(=O)NCC(C)OP(=O)(O)O[C@@H]1[C@H](O)[C@H](n6cnc7cc(C)c(C)cc76)O[C@H]1CO)[C@H]5CC(N)=O)[C@@](C)(CC(N)=O)[C@@H]4CCC(N)=O)[C@@](C)(CC(N)=O)[C@@H]\3CCC(N)=O)C(C)(C)[C@@H]/2CCC(N)=O.[C-]#N.[Co+3]` (stereo partly specified) the outcome was “inactive”. In the case of `COc1ccc(CN2/C(=N\P(=O)(Oc3ccccc3)Oc3ccccc3)Cc3ccccc3C2C2CC2)cc1` (stereo unspecified), the outcome is reported as “inactive”. In the case of `COc1ccc(CN2/C(=N/P(=O)(Oc3ccccc3)Oc3ccccc3)CC(C)=CC2C)cc1` (stereo unspecified), the outcome is reported as “inactive”.

From PubChem BioAssay AID624138 (Broad Institute, 2012)
